Measured affinities in a library of Ab-91 heavy chain variants

Reference: Engelhart et al. 2022, doi:10.1038/s41597-022-01779-4. File: FLAb, binding data.

Target peptide (SARS-CoV-2 spike, HR2 region): PDVDLGDISGINAS

Parent: Ab-91, a human scFv built as VL, the linker GGGGSGGGGSGGGGS, VH. Only the CDRs of the heavy chain vary.
VL: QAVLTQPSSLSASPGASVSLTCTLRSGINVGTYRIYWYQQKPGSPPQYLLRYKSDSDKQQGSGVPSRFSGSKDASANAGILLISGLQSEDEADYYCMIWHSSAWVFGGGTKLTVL
VH: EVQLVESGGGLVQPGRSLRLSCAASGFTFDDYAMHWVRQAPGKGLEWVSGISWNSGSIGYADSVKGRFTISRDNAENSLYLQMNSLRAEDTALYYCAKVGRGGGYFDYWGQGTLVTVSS

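The parent was found by panning a naive human phage display library on the peptide. The library (AAYL51) carries one to three amino acid substitutions per variant, with no insertions or deletions. AlphaSeq pools MATa yeast showing the antibodies with MATalpha yeast showing the peptide. Mating (16 h, 30 °C) was followed by selection of diploids and sequencing of their barcodes. Each replicate has its own calibration line, from reference interactions of the BCL2 family. There are three technical replicates.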

The whole VH of each variant is written out.
Numbers give log10(Kd / nM), so 0 is 1 nM and 3 is 1 µM. Smaller is tighter.
Replicates are averaged; those with no signal do not enter the mean.
An entry "no signal" has no value in the source: the pair was not observed among the diploids in any replicate. This suggests poor binding but is not conclusive.
The list is sorted by this average, lowest first, undetected variants last.

VH	log10 Kd (nM), mean	replicates with signal
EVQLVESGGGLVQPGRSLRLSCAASGFTFDTYAMHWVRQAPGKGLEWVSGISWNSGSIGYAYSVKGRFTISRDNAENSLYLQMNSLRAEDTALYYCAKVGNGGGYFDYWGQGTLVTVSS	2.68	3/3
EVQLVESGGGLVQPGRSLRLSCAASGFTFDDYAMHWVRQAPGKGLEWVSGISWNSGSIIYADSVKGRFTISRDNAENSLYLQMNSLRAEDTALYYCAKVGRWGEYFDYWGQGTLVTVSS	3.34	2/3
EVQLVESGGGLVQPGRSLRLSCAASGFTFDDYIMHWVRQAPGKGLEWVSGISWNSGSIGYADSVKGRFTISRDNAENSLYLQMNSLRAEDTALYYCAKVGRKNGYFDYWGQGTLVTVSS	3.39	1/3
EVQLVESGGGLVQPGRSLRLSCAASGFTFDDYAMRWVRQAPGKGLEWVSGISWNSGPIGYADSVKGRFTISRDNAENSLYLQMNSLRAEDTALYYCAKVGRGGGNFDYWGQGTLVTVSS	3.74	1/3
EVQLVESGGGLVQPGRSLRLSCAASGFTFDDYAMDWVRQAPGKGLEWVSGPSWNSGSIGYADSVKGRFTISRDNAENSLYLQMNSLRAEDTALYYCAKVRRGGGYFDYWGQGTLVTVSS	4.09	3/3
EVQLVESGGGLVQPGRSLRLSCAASGFTFDDYAMHWVRQAPGKGLEWVSGIEWNSGSIGYADIVKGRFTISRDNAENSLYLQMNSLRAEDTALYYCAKVYRGGGYFDYWGQGTLVTVSS	4.53	1/3
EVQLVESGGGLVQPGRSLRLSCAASGFTFDYYAMHWVRQAPGKGLEWVSGISWNSGSIGYADSVKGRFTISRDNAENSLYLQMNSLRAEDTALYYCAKVGRGGGYNDSWGQGTLVTVSS	4.64	2/3
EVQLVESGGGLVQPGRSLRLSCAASGFTFDDYAMHWVRQAPGKGLEWVSGISWNSGSIGYADFVKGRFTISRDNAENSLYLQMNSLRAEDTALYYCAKVKRGGWYFDYWGQGTLVTVSS	4.83	3/3
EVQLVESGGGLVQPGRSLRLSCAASGFTFDDYAMHWVRQAPGKGLEWVSGISWNSGSFYYADSVKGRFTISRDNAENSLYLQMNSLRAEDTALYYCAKVGRGGRYFDYWGQGTLVTVSS	4.98	3/3
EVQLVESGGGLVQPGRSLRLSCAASGFFFDDYAMHWVRQAPGKGLEWVSGISWNSGSIGYADSVKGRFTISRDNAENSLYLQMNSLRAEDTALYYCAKVSRFGGYFDYWGQGTLVTVSS	5.28	2/3
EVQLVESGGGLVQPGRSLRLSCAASGFTFDDYAMHWVRQAPGKGLEWVSGISWNSGSIGTADSVNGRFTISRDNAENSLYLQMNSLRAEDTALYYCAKNGRGGGYFDYWGQGTLVTVSS	5.34	1/3
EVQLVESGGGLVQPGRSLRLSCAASGFTFDDYAMHWVRQAPGKGLEWVSGISWNSGSIHYADSVVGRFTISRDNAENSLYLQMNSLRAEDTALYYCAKVGRGGGYFDGWGQGTLVTVSS	5.91	1/3
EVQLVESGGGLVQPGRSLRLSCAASGFTFDDYAMHWVRQAPGKGLEWVSGISWNSGSIGYADSWKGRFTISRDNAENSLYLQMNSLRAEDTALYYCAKVGCGGGYKDYWGQGTLVTVSS	no signal	0/3
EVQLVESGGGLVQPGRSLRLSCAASGFTFDDYAMHWVRQAPGKGLEWVSGITWNSQSIGYADSVKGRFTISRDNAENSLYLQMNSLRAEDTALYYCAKYGRGGGYFDYWGQGTLVTVSS	no signal	0/3
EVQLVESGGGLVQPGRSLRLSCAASGFTFDDDAMKWVRQAPGKGLEWVSGISWNSGSIGYADSVKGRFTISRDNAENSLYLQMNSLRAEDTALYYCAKVGKGGGYFDYWGQGTLVTVSS	no signal	0/3
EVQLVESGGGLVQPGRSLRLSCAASGFTFDDYAMHWVRQAPGKGLEWVSGISWNIGHIGYADSVKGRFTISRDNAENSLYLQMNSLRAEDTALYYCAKVGRGAGYFDYWGQGTLVTVSS	no signal	0/3
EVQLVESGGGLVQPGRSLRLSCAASGFTFDDYAMHWVRQAPGKGLEWVSGISCNLGSIGYADSVKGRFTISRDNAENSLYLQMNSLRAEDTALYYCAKVGRNGGYFDYWGQGTLVTVSS	no signal	0/3
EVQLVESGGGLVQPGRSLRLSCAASGFTFDDYAMHWVRQAPGKGLEWVSGISWNSGSICYADSVEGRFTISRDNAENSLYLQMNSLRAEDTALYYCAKVGRGGGYFSYWGQGTLVTVSS	no signal	0/3
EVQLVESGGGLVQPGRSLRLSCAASGFTFDDYAMHWVRQAPGKGLEWVSCISWNSGSIGYADSVKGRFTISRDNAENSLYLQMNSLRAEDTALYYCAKVGRHGGYFDYWGQGTLVTVSS	no signal	0/3

Nonspecific signal, from three strains lacking the peptide, appeared in 21% of pairings of library AAYL51, centred on 4.54 (5% of these signals below 3.26); values are not corrected for it.